Literature values in patent US10233246B2, “Antibody and antibody fragment introduced new modification sites” (KYOWA HAKKO KIRIN CO., LTD, priority 2010, dated 2019).

System: Her2-positive progressive breast cancer
Details: Phase II trial

In the case of Tratsuzumab-DM1, the “patients with reduction of the cancer” value is given as 25%.
